Laboratory results reported in ChEMBL document CHEMBL1165946, “Development of antiproliferative phenylmaleimides that activate the unfolded protein response” (Bioorg Med Chem, 2010).

Assays:
[1] = Upregulation of unfolded protein response-related ATF4 gene expression in human Hep3B cells at 10 uM after 1 hr by RT-PCR analysis relative to control; type: functional, cell-based; details: Hep 3B2
Procedure, shortened: (§1)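 HEP3B cells treated 1 h with 10 µM analogue, compared with untreated cells. Gene expression measured by real-time PCR with SYBR chemistry and gene-specific primer pairs, triplicate wells, GAPDH as endogenous control. Analysed by the comparative Ct method and expressed as fold induction over untreated control (n = 3, SD). Significance set at p <0.05.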

[2] = Upregulation of unfolded protein response-related DDIT3 gene expression in human Hep3B cells at 10 uM after 1 hr by RT-PCR analysis relative to control; type: functional, cell-based; details: Hep 3B2; procedure, shortened: as §1

Compound: O=C1C(SCCO)=C(SCCO)C(=O)N1c1ccc(-c2ccccc2)cc1
- fold change (FC) [1]: 2
- fold change (FC) [2]: 2
